Columns and labels:
Thrombin = Thrombin (Homo sapiens, UniProt P00734); conditions: Boc-Val-Pro-Arg-NHMec 50 μM, Mean (±SD)
Trypsin = conditions: PBS pH 7.4, 37° C., Cbz-Gly-Gly-Arg-NHMec 50 μM, Mean (±SD)
Matriptase = Matriptase (Homo sapiens, UniProt Q9Y5Y6); conditions: Mean (±SD)
[1] = biological target: Human Airways Trypsin-like protease (HAT) (Homo sapiens, UniProt O60235); conditions: Mean (±SD)
[2] = tested on: CuFi cells (a CF human epithelial cell line); conditions: 24 hours, 1-100 μM

Amino acid sequences for entries named in this document (tags omitted). A change or cut given only in a name is not applied to a line headed by its entry.
UniProt Q9Y5Y6, whole entry, species assumed: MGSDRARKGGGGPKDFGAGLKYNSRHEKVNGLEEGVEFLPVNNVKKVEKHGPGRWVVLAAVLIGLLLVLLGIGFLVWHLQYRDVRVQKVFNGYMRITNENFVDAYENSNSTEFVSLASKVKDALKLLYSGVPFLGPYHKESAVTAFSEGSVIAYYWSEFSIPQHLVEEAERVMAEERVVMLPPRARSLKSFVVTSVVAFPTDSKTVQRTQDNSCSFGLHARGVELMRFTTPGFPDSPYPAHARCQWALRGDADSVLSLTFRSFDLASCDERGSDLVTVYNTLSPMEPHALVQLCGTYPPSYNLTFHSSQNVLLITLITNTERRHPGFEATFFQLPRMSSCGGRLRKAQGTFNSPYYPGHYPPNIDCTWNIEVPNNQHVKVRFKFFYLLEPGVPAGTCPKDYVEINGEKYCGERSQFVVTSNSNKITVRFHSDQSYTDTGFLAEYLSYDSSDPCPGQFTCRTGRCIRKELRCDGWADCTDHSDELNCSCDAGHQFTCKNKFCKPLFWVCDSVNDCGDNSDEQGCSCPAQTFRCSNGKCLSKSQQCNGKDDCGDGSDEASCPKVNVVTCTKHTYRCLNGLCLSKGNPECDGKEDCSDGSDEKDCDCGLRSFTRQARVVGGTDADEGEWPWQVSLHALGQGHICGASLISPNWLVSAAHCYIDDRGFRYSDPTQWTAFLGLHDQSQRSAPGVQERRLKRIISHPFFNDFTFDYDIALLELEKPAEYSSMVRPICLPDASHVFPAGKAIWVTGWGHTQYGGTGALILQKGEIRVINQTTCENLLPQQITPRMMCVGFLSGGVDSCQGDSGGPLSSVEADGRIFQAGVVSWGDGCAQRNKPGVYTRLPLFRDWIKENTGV
UniProt O60235: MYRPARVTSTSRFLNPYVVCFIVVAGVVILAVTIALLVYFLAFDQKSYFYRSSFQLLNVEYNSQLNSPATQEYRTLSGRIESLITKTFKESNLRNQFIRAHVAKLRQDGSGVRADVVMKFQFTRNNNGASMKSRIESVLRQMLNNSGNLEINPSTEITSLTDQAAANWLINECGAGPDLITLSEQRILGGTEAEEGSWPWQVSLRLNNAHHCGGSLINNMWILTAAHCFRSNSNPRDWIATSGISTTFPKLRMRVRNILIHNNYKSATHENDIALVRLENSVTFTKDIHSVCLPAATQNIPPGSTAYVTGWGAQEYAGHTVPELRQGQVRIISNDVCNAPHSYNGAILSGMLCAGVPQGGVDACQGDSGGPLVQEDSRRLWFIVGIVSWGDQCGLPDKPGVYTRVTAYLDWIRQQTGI

Substance | Ki (Thrombin) | Ki (Trypsin) | Ki (Matriptase) | Ki [1] | cytotoxicity (MTS, viable cells) [2]
Biotin-PEG-NH—(N-benzyl-glycyl)-(D)-phenylalanyl-N-(n-guanidino-propyl)-glycine succinimidyl carbamate [NAT988] | 880 nM |  |  |  | 
Biotin-PEG-NH—N-(n-guanidino-propyl)-glycine-Gln-Sar-N-(n-guanidino-propyl)-glycine succinimidyl carbamate [NAP1099] |  | 150 nM | 83.3 nM | 322 nM | well tolerated
Biotin-PEG-NH—N-(n-guanidino-propyl)-glycine-N(Val)-N(Lys)-N-(n-guanidino-propyl)-glycine succinimidyl carbamate [NAP1127] |  |  |  |  | well tolerated
Biotin-PEG-NH-Gly-Gly-N-(n-guanidino-propyl)-glycine succinimidyl carbamate [NAP858] |  |  | 733 nM | 659 nM | well tolerated
